The values that follow come from published antibiotic growth screens (doi:10.1038/s41589-023-01349-8).

The other results are listed elsewhere or left out.

This assay concerns A. baumannii ATCC 17978. In words: relative growth (fraction of control); higher = less inhibition. The note with it: 50 µM.
As to `S=C1NCN(Cc2cccs2)CN1`, the relative growth is 0.919.
With `Cn1cnc(S(=O)(=O)N2C[C@@H](O)COC[C@H]3O[C@H](CC(=O)NCc4cc(F)cc(F)c4)CC[C@@H]32)c1` the figure was 0.876; with `Nc1ncnc2c1ncn2CCN1CCOCC1`, 1.05; with `CC(=O)N(C)C[C@@H]1Oc2ncc(C#C[C@@H](C)O)cc2C(=O)N([C@H](C)CO)C[C@@H]1C`, 0.962.
The figure for `CN(C)CCCCCCNC(=O)[C@H]1C[C@H]2C(=O)N3CCC[C@H]3C(=O)N2[C@H]1c1cccc(OCCO)c1` is 0.953; for `C[C@@H]1CN([C@@H](C)CO)S(=O)(=O)c2ccc(-c3ccc(C(=O)N(C)C)cc3)cc2O[C@@H]1CN(C)C(=O)C1CCOCC1` it is 0.856.
With `O=C1C=C(O)C(=O)c2ccccc21` the figure was 1.01.
In the case of `Cc1sc(C)c(CNc2ccccc2)c1CNc1ccccc1`, the relative growth turned out to be 1.01.
The figure for `CCNC(=O)C[C@@H]1C=C[C@@H](NC(=O)C2CCOCC2)[C@H](CO)O1` is 0.986; for `CN(C)CCOC(c1ccccc1)c1ccccc1.Cl` it is 1.02.
The figure for `COc1ccc(C)c2c1CCCC2=O` is 1.02; for `CSc1nn(C)c2cnn(C)c(=O)c12` it is 1.05.
Molecule `O=C(CN1CCOCC1)N[C@@H]1CC[C@@H](CCNC(=O)C2CCCCC2)O[C@H]1CO` displayed a relative growth of 0.98.
The figure for `Cl.OC(CNCC(O)C1CCc2cc(F)ccc2O1)C1CCc2cc(F)ccc2O1` (centres undefined) is 0.849; for `COc1ccc([Si](C)(C)[C@H]2[C@H](CCO)O[C@@]3(C(=O)N(Cc4ccccc4)c4ccc(N5C(=O)c6cccc7cccc5c67)cc43)[C@@H]2C)cc1` it is 1.38.
Consider `Cc1ccn2c(=O)c(C(=O)O)cnc2c1`, for which the relative growth came to 1.06.
With `COC[C@H]1CNN1C(=O)C1CCCC1` the figure was 1.04; with `O=C(O)c1c(O)c2c([nH]c1=O)CCCC2`, 0.152; with `CS(=O)(=O)N[C@@H](C(=O)O)c1ccccc1`, 1.12.
Turning to `CC1(C)C(=O)NCCN1C(=O)c1ccco1`, the relative growth is 0.94.
With `O=C(CCc1ccc(O)cc1)c1c(O)cc(O)cc1O` the figure was 1.16.
The figure for `CCCN[C@H]1CCc2nc(N)sc2C1.Cl.Cl` is 0.982; for `Cn1nnnc1SCC(=O)Nc1ncccn1` it is 1.06; for `COc1ccc(/C=C/CN2CCC(C(=O)N[C@@H](c3ccc(F)cc3)c3ccc4ccccc4n3)CC2)cc1` it is 0.692.
On to `CO[C@H]1CC(O[C@@H]2/C(C)=C/C[C@@H]3C[C@@H](C[C@]4(CC[C@H](C)[C@@H](C5CCCCC5)O4)O3)OC(=O)[C@@H]3C=C(C)/C(=N/O)[C@H]4OC/C(=C\C=C\[C@@H]2C)[C@]43O)O[C@@H](C)C1O` (some centres undefined), for which the relative growth came out at 1.01.
Turning to `O=c1cc(-c2ccc(O)cc2)oc2ccc(O)cc12`, the relative growth is 1.04.
The figure for `CC(=O)NS(=O)(=O)c1ccc(NC(=O)c2ccccc2C(=O)O)cc1` is 0.969; for `CC[C@@H]1OC(=O)C[C@@H](O)[C@H](C)[C@@H](O[C@@H]2O[C@H](C)[C@@H](O)[C@H](N(C)C)[C@H]2O)[C@@H](CCN2C[C@H](C)C[C@H](C)C2)C[C@@H](C)C(=O)/C=C/C(C)=C\[C@@H]1CO[C@@H]1O[C@H](C)[C@@H](O)[C@@H](OC)[C@H]1OC` it is 0.674.
The figure for `COCCN[C@H]1CS(=O)(=O)C[C@@H]1O` is 1.08; for `O=C(C[C@@H]1CC[C@@H]2[C@H](COC[C@@H](O)CN2C(=O)Nc2cccc(Cl)c2)O1)NCc1ccccc1F` it is 1.01; for `Cc1c[nH]c2ccccc12` it is 1.15.
The molecule `c1ccc(CNc2ccc3c(ccc4c5ccccc5[nH]c34)n2)cc1` registered a relative growth of 0.959.
`CC(S)C(=O)NCC(=O)O` (centres undefined) showed a relative growth of 1.02.
The figure for `O=C(c1ccccc1F)N1CCNCC1` is 1.04; for `CC[N+](CC)(CC(=O)Nc1c(C)cccc1C)Cc1ccccc1.O=C([O-])c1ccccc1` it is 1.11.
The molecule `Cn1cnc(CCNC(=O)C[C@@H]2CC[C@@H]3[C@H](COC[C@H](O)CN3C(=O)C3CC3)O2)c1` registered a relative growth of 0.8.
With `COc1ccc(NC(=O)N[C@H]2CC[C@H](CCNC(=O)CN3CCOCC3)O[C@@H]2CO)cc1` the figure was 0.959; with `CNC[C@H](O)c1ccc(O)c(O)c1`, 0.936; with `Fc1ccccc1[C@H]1Nc2ccc3ccccc3c2[C@H]2C=CC[C@@H]21`, 1.21.
Turning to `CC(=O)OC[C@H]1O[C@@H](n2cc(C)c(=O)[nH]c2=O)C[C@@H]1OC(C)=O`, the relative growth is 1.02.
With `C[C@@H]1CN([C@@H](C)CO)S(=O)(=O)c2ccc(-c3ccc(F)cc3)cc2O[C@H]1CN(C)C(=O)C1CCOCC1` the figure was 0.885; with `Cc1ccc(S(=O)(=O)N[C@@H]2CC[C@@H](CC(=O)N3CCC(Cc4ccccc4)CC3)O[C@H]2CO)cc1`, 0.772.
With `CC(=O)N[C@H]1[C@H](Oc2nc3cc(C)ccc3o2)O[C@H](CO)[C@@H](O)[C@@H]1O` the figure was 1.08; with `C=c1[nH]/c(=C\c2ccc(F)cc2)c(=O)o1`, 0.909.
With `COC(=O)C1=CO[C@@H](O[C@@H]2O[C@H](CO)[C@@H](O)[C@H](O)[C@H]2O)[C@@H]2[C@@H](CO)C=C[C@H]12` the figure was 0.927; with `O=S(=O)(Nn1cnnc1)c1ccccc1`, 0.935.
Molecule `CCOCCCNc1nc2c([nH]1)c(=O)n(C)c(=O)n2C` yielded a relative growth of 1.02.
With `O=C(C[C@H]1C=C[C@H](NS(=O)(=O)c2ccc(F)cc2)[C@@H](CO)O1)NCCN1CCCCC1` the figure was 1.08.
With `C=c1[nH]/c(=C/c2cccnc2)c(=O)o1` the figure was 0.947; with `C[C@@H]1[C@@H]([Si](C)(C)F)[C@H](CCn2cc([C@H](O)c3ccccc3)nn2)O[C@@]12C(=O)N(c1ccccc1)c1ccccc12`, 0.949.
The figure for `C=CC[C@@H](CC(=O)N(CCO)Cc1ccccc1)C(=O)N[C@H](COC(=O)[C@@H](CC=C)Cc1ccc(F)cc1)c1ccccc1` is 0.948; for `CC(=O)O[C@H]1C[C@@H](O)C(C)(C)C2C[C@@H](OC(C)=O)[C@]3(C)C(CC[C@@]4(C)[C@H](c5ccoc5)OC(=O)C5OC543)[C@]21C` (some centres undefined) it is 1.
Molecule `Nc1ccn([C@H]2CC[C@@H](CO)O2)c(=O)n1` yielded a relative growth of 0.934.
The figure for `Oc1cc(O)c2c(c1)O[C@H](c1cc(O)c(O)c(O)c1)[C@H](O)C2` is 1.24.
With `CN1C(=N)NC(=O)/C1=C/c1cccnc1` the figure was 0.819; with `CN(C(=O)C(Cl)Cl)c1ccc(OC(=O)c2ccco2)cc1`, 0.888; with `COc1cc(/C=C/C(N)=O)cc(OC)c1OC`, 0.936.
As to `Cn1nnnc1-c1ccco1`, the relative growth was 0.87.
With `CC(CCC(=O)O)C1CC[C@H]2C3[C@H](O)C[C@@H]4C[C@H](O)CCC4(C)[C@H]3C[C@H](O)C12C` (some centres undefined) the figure was 1.2.
The figure for `C=CCNC(N)=S` is 0.863; for `CC(=O)OC[C@H](N)C(=O)O` it is 0.848.
With `O=C(O)CCCNc1n[nH]c(=O)[nH]c1=O` the figure was 1; with `Nc1nc(=O)c2ncn(COC(CO)CO)c2[nH]1`, 0.968.
As to `C[C@H](O)C#Cc1ccc2c(c1)O[C@H](CN(C)C(=O)C1CCCCC1)[C@H](C)CN([C@H](C)CO)S2(=O)=O`, the relative growth came to 1.01.
The figure for `CCCNC(=O)N1C[C@H](C)[C@@H](OC)CN(C)C(=O)c2cc(NS(=O)(=O)CC(F)(F)F)ccc2OC[C@H]1C` is 0.957; for `CC[C@@H](C)[C@H]1NC(=O)NC1=O` it is 0.851; for `Cn1cnc(S(=O)(=O)N[C@@H]2C=C[C@@H](CC(=O)Nc3ccccc3)O[C@@H]2CO)c1` it is 1.03.
The figure for `CC(C)(C#N)c1cc(Cn2cncn2)cc(C(C)(C)C#N)c1` is 0.919.
With `CO[C@@H]1[C@H](N(C)C(=O)c2ccccc2)C[C@H]2O[C@]1(C)n1c3ccccc3c3c4c(c5c6ccccc6n2c5c31)C(=O)NC4` the figure was 1.01; with `C=CC(C1=CC(=O)C(OC)=CC1=O)c1ccc(OC)cc1` (centres undefined), 0.954.
As to `O=C(C[C@H]1CC[C@H]2[C@@H](COC[C@@H](O)CN2Cc2ccccc2F)O1)N[C@@H]1CCN(Cc2ccccc2)C1`, the relative growth turned out to be 0.786.
The figure for `O=C(C[C@@H]1CC=CCCC(=O)OC[C@H](Cc2c[nH]c3ccccc23)NC1=O)N[C@H](CO)Cc1ccccc1` is 0.871; for `Cc1ccc(C(=O)Oc2ccc(/C=N/c3cccs3)cc2)cc1` it is 0.922.
Molecule `Oc1c(I)cc(Cl)c2cccnc12` displayed a relative growth of 0.671.
In turn, `CCCN1CCCc2cc(CCN)ccc21` gave a relative growth of 0.932.
With `COc1ccccc1OCC(O)CO` (centres undefined) the figure was 1.09.
The figure for `C[C@H](CO)N1C[C@H](C)[C@@H](CN(C)C(=O)Cc2ccncc2)Oc2cc(C#CC3(O)CCCC3)ccc2S1(=O)=O` is 0.971.
With `O=C(C[C@@H]1CC[C@@H]2[C@H](COC[C@H](O)CN2C(=O)c2ccc3c(c2)OCO3)O1)NC1Cc2ccccc2C1` the figure was 1.1; with `C[C@@H]1CC[C@H]2C(C)(C)C3CC12CC[C@@]3(C)O` (some centres undefined), 1.01; with `C[C@H](CO)N1C[C@H](C)[C@H](CN(C)CC2CCOCC2)Oc2cc(C#Cc3cccnc3)ccc2S1(=O)=O`, 0.985.
In turn, `CNC(=O)C[C@@H]1CC[C@H]2[C@@H](COC[C@H](O)CN2C(=O)c2ccc3c(c2)OCO3)O1` yielded a relative growth of 1.07.
The figure for `O=C(C[C@@H]1CC[C@@H](NC(=O)CN2CCOCC2)[C@@H](CO)O1)NCCc1ccccc1` is 1.08; for `Cc1cc(=O)[nH]c(=S)[nH]1` it is 1.16.
Consider `COCC(=O)Nc1ccc2c(c1)C(=O)N(C)C[C@H](OC)[C@H](C)CN(Cc1cccc(F)c1)[C@H](C)CO2`, for which the relative growth was 0.998.
The figure for `COc1cc(C)c(C(=O)O)c(OC(C)=O)c1` is 1.25.
Molecule `CN1C(=O)COc2cc(N)ccc21` gave a relative growth of 0.984.
With `CC(=O)O[C@@H]1[C@H](OC(C)=O)N(C(C)=O)C(=O)N1C(C)=O` the figure was 1.04.
As to `CCN(CCCc1ccccc1)CCCc1ccccc1.O=C(O)CC(O)(CC(=O)O)C(=O)O`, the relative growth is 0.995.
`CN(C)Cc1cn(CC[C@@H]2CC[C@H](NC(=O)Cc3cccnc3)[C@@H](CO)O2)nn1` had a relative growth of 1.07.
`Cc1ncc(C[n+]2csc(CCO)c2C)c(N)n1.Cl.[Cl-]` had a relative growth of 0.909.
The figure for `Nc1ncnc2c1c(I)cn2[C@H]1O[C@@H](CO)[C@@H](O)[C@@H]1O` is 0.664.
`CN(C)CCCCNC(=O)[C@H]1C[C@H]2C(=O)N[C@@H](CCCCN(C)C)C(=O)N2[C@H]1c1cccc(OCCO)c1` had a relative growth of 0.92.
The figure for `O=C(CCCCCCCC(=O)NCCO)NCCO` is 1.17; for `COC(=O)C[C@H]1CC[C@@H](N)[C@@H](CO)O1` it is 0.898.
